Experimental data from US8536113B2, “EGFR binding peptides and uses thereof” (Janssen Biotech, Inc., priority 2006, dated 2013).

System: A431 cells
Test: FACS binding of P190-MMB constructs and cetuximab
Type: cell-based, human
Description: In contrast, 190-MMB as the 4316 construct, binds EGFR and the presence of excess EGF promotes its binding.

Substance: cetuximab [reference compound]
- binding to A431: binds EGFR+ A431
